Data as given in publication PMC8569887 (Journal of medicinal chemistry, 2021).

Test system: acetylated α-tubulin (AcTub) levels in QBI293 cells
Details: for Class (Table 1): from AcTub and α-Tub at 1 and 10 μM; for Class (Table 2): from AcTub and α-Tub at 1 and 10 μM (61: 10 and 30 μM); for effect on AcTub and α-tubulin levels: 1 and 10 μM

SMILES | Class (Table 1) | Class (Table 2) | effect on AcTub and α-tubulin levels
C[C@H](Nc1c(-c2c(F)cc(C(F)(F)F)cc2F)c(Cl)nc2ncnn12)C(F)(F)F [Compound 19, (S)-5-Chloro-6-(2,6-difluoro-4-(trifluoromethyl)phenyl)-N-(1,1,1-trifluoropropan-2-yl)-[1,2,4]triazolo[1,5-a]pyrimidin-7-amine] | I (Class I compounds are those producing a concentration-dependent increase in AcTub levels and that do not cause >15% reduction in α-tubulin at either concentration) | – | –
C[C@H](Nc1c(-c2c(F)cccc2F)c(Cl)nc2ncnn12)C(F)(F)F [Compound 12, (S)-5-Chloro-6-(2,6-difluorophenyl)-N-(1,1,1-trifluoropropan-2-yl)-[1,2,4]triazolo[1,5-a]pyrimidin-7-amine] | I (Class I compounds are those producing a concentration-dependent increase in AcTub levels and that do not cause >15% reduction in α-tubulin at either concentration) | – | –
CC(C)Nc1c(-c2c(F)cc(F)cc2F)c(Cl)nc2ncnn12 [Compound 35, 5-Chloro-N-isopropyl-6-(2,4,6-trifluorophenyl)-[1,2,4]triazolo[1,5-a]pyrimidin-7-amine] | – | I (Class I compounds are those producing a concentration-dependent increase in AcTub levels and that do not cause >15% reduction in α-tubulin at either concentration) | –
Fc1cc(F)c(-c2c(Cl)nc3ncnn3c2NC2CCCCC2)c(F)c1 [Compound 58, 5-Chloro-N-cyclohexyl-6-(2,4,6-trifluorophenyl)-[1,2,4]triazolo[1,5-a]pyrimidin-7-amine] | – | I (Class I compounds are those producing a concentration-dependent increase in AcTub levels and that do not cause >15% reduction in α-tubulin at either concentration) | –
C[C@H](Nc1c(-c2c(F)cc(C#N)cc2F)c(Cl)nc2ncnn12)C(F)(F)F [Compound 20, (S)-4-(5-Chloro-7-((1,1,1-trifluoropropan-2-yl)amino)-[1,2,4]triazolo[1,5-a]pyrimidin-6-yl)-3,5-difluorobenzonitrile] | I (Class I compounds are those producing a concentration-dependent increase in AcTub levels and that do not cause >15% reduction in α-tubulin at either concentration) | – | increase AcTub levels without producing a significant reduction in α-tubulin levels
C[C@H](Nc1c(-c2c(F)cc(O)cc2F)c(Cl)nc2ncnn12)C(F)(F)F [Compound 33] | II (Class II compounds are those that cause >15% decrease in α-tubulin at either 1 or 10 μM compound concentration) | – | –
Fc1cc(F)c(-c2c(Cl)nc3ncnn3c2N2CCC2)c(F)c1 [Compound 49, 7-(Azetidin-1-yl)-5-chloro-6-(2,4,6-trifluorophenyl)-[1,2,4]triazolo[1,5-a]pyrimidine] | – | I (Class I compounds are those producing a concentration-dependent increase in AcTub levels and that do not cause >15% reduction in α-tubulin at either concentration) | –
C[C@H](Nc1c(-c2ccc(F)cc2)c(Cl)nc2ncnn12)C(F)(F)F [Compound 9, (S)-5-Chloro-6-(4-fluorophenyl)-N-(1,1,1-trifluoropropan-2-yl)-[1,2,4]triazolo[1,5-a]pyrimidin-7-amine] | I (Class I compounds are those producing a concentration-dependent increase in AcTub levels and that do not cause >15% reduction in α-tubulin at either concentration) | – | –
CC(CF)Nc1c(-c2c(F)cc(F)cc2F)c(Cl)nc2ncnn12 (stereo not drawn) [Compound 44, 5-Chloro-N-(1-fluoropropan-2-yl)-6-(2,4,6-trifluorophenyl)-[1,2,4]triazolo[1,5-a]pyrimidin-7-amine] | – | I (Class I compounds are those producing a concentration-dependent increase in AcTub levels and that do not cause >15% reduction in α-tubulin at either concentration) | –
Fc1cc(F)c(-c2c(Cl)nc3ncnn3c2N2CCCCCCC2)c(F)c1 [Compound 53, 7-(Azocan-1-yl)-5-chloro-6-(2,4,6-trifluorophenyl)-[1,2,4]triazolo[1,5-a]pyrimidine] | – | I (Class I compounds are those producing a concentration-dependent increase in AcTub levels and that do not cause >15% reduction in α-tubulin at either concentration) | –
C[C@H](Nc1c(-c2ccccc2)c(Cl)nc2ncnn12)C(F)(F)F [Compound 8, (S)-5-Chloro-6-phenyl-N-(1,1,1-trifluoropropan-2-yl)-[1,2,4]triazolo[1,5-a]pyrimidin-7-amine] | I (Class I compounds are those producing a concentration-dependent increase in AcTub levels and that do not cause >15% reduction in α-tubulin at either concentration) | – | –
CC(Nc1c(-c2c(F)cc(F)cc2F)c(Cl)nc2ncnn12)C(F)F (stereo not drawn) [Compound 43, 5-Chloro-N-(1,1-difluoropropan-2-yl)-6-(2,4,6-trifluorophenyl)-[1,2,4]triazolo[1,5-a]pyrimidin-7-amine] | – | I (Class I compounds are those producing a concentration-dependent increase in AcTub levels and that do not cause >15% reduction in α-tubulin at either concentration) | –
CC(Cc1c(-c2c(F)cc(F)cc2F)c(Cl)nc2ncnn12)C(F)(F)F (stereo not drawn) [Compound 62, 5-Chloro-7-(3,3,3-trifluoro-2-methylpropyl)-6-(2,4,6-trifluorophenyl)-[1,2,4]triazolo[1,5-a]pyrimidine] | – | II (Class II compounds are those that cause >15% decrease in α-tubulin at either 1 or 10 μM compound concentration) | –
C[C@H](Nc1c(-c2cc(F)cc(F)c2)c(Cl)nc2ncnn12)C(F)(F)F [Compound 13, (S)-5-Chloro-6-(3,5-difluorophenyl)-N-(1,1,1-trifluoropropan-2-yl)-[1,2,4]triazolo[1,5-a]pyrimidin-7-amine] | I (Class I compounds are those producing a concentration-dependent increase in AcTub levels and that do not cause >15% reduction in α-tubulin at either concentration) | – | –
CC(C)CNc1c(-c2c(F)cc(F)cc2F)c(Cl)nc2ncnn12 [Compound 37, 5-Chloro-N-isobutyl-6-(2,4,6-trifluorophenyl)-[1,2,4]triazolo[1,5-a]pyrimidin-7-amine] | – | I (Class I compounds are those producing a concentration-dependent increase in AcTub levels and that do not cause >15% reduction in α-tubulin at either concentration) | –
COc1cc(F)c(-c2c(Cl)nc3ncnn3c2N[C@@H](C)C(F)(F)F)c(F)c1 [Compound 24, (S)-5-chloro-6-(2,6-difluoro-4-methoxyphenyl)-N-(1,1,1-trifluoropropan-2-yl)-[1,2,4]triazolo[1,5-a]pyrimidin-7-amine] | II (Class II compounds are those that cause >15% decrease in α-tubulin at either 1 or 10 μM compound concentration) | – | –
Fc1cc(F)c(-c2c(Cl)nc3ncnn3c2NCc2ccccc2)c(F)c1 [Compound 41, N-Benzyl-5-chloro-6-(2,4,6-trifluorophenyl)-[1,2,4]triazolo[1,5-a]pyrimidin-7-amine] | – | I (Class I compounds are those producing a concentration-dependent increase in AcTub levels and that do not cause >15% reduction in α-tubulin at either concentration) | –
C[C@H](Nc1c(-c2ccc(F)c(F)c2)c(Cl)nc2ncnn12)C(F)(F)F [Compound 15, (S)-5-Chloro-6-(3,4-difluorophenyl)-N-(1,1,1-trifluoropropan-2-yl)-[1,2,4]triazolo[1,5-a]pyrimidin-7-amine] | I (Class I compounds are those producing a concentration-dependent increase in AcTub levels and that do not cause >15% reduction in α-tubulin at either concentration) | – | –
Fc1cc(F)c(-c2c(Cl)nc3ncnn3c2N2CCCCC2)c(F)c1 [Compound 51, 5-Chloro-7-(piperidin-1-yl)-6-(2,4,6-trifluorophenyl)-[1,2,4]triazolo[1,5-a]pyrimidine] | – | I (Class I compounds are those producing a concentration-dependent increase in AcTub levels and that do not cause >15% reduction in α-tubulin at either concentration) | –
Fc1cc(F)c(-c2c(Cl)nc3ncnn3c2N2CCCC2)c(F)c1 [Compound 50, 5-Chloro-7-(pyrrolidin-1-yl)-6-(2,4,6-trifluorophenyl)-[1,2,4]triazolo[1,5-a]pyrimidine] | – | I (Class I compounds are those producing a concentration-dependent increase in AcTub levels and that do not cause >15% reduction in α-tubulin at either concentration) | –
Fc1cc(F)c(-c2c(Cl)nc3ncnn3c2N2CCCCCC2)c(F)c1 [Compound 52, 7-(Azepan-1-yl)-5-chloro-6-(2,4,6-trifluorophenyl)-[1,2,4]triazolo[1,5-a]pyrimidine] | – | I (Class I compounds are those producing a concentration-dependent increase in AcTub levels and that do not cause >15% reduction in α-tubulin at either concentration) | –
CC(C)[C@@H](Nc1c(-c2c(F)cc(F)cc2F)c(Cl)nc2ncnn12)C(F)(F)F [Compound 46, (R)-5-Chloro-N-(1,1,1-trifluoro-3-methylbutan-2-yl)-6-(2,4,6-trifluorophenyl)-[1,2,4]triazolo[1,5-a]pyrimidin-7-amine] | – | I (Class I compounds are those producing a concentration-dependent increase in AcTub levels and that do not cause >15% reduction in α-tubulin at either concentration) | –
CO[C@H]1C[C@H]2CC[C@@H](C1)N2c1c(-c2c(F)cc(F)cc2F)c(Cl)nc2ncnn12 [Compound 54] | – | I (Class I compounds are those producing a concentration-dependent increase in AcTub levels and that do not cause >15% reduction in α-tubulin at either concentration) | –
C[C@H](Nc1c(-c2c(F)cc([N+](=O)[O-])cc2F)c(Cl)nc2ncnn12)C(F)(F)F [Compound 22, (S)-5-Chloro-6-(2,6-difluoro-4-nitrophenyl)-N-(1,1,1-trifluoropropan-2-yl)-[1,2,4]triazolo[1,5-a]pyrimidin-7-amine] | I (Class I compounds are those producing a concentration-dependent increase in AcTub levels and that do not cause >15% reduction in α-tubulin at either concentration) | – | increase AcTub levels without producing a significant reduction in α-tubulin levels
CSc1cc(F)c(-c2c(Cl)nc3ncnn3c2N[C@@H](C)C(F)(F)F)c(F)c1 [Compound 28, (S)-5-Chloro-6-(2,6-difluoro-4-(methylthio)phenyl)-N-(1,1,1-trifluoropropan-2-yl)-[1,2,4]triazolo[1,5-a]pyrimidin-7-amine] | II (Class II compounds are those that cause >15% decrease in α-tubulin at either 1 or 10 μM compound concentration) | – | –
